Measured values from US20230312722A1 (NONA BIOSCIENCES SUZHOU, published 2023).
Values belong to the binder of their own block, whether it stands above or below them.

Amino acid sequences for entries named in this document (tags omitted). Residues count along the entry.
UniProt P07766, 23-207 limits assumed, chain 1 of 3: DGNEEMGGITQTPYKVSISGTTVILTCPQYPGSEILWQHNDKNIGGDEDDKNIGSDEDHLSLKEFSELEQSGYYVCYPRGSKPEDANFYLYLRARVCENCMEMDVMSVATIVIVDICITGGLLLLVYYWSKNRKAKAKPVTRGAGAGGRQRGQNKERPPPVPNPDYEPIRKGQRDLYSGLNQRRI
CD3 on human T cells, UniProt P04234, 22-171 limits assumed, chain 2 of 3: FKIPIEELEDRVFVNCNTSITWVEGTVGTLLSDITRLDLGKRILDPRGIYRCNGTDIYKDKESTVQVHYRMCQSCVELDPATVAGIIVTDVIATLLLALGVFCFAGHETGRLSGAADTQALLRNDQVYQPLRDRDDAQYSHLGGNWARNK
CD3 on human T cells, UniProt P09693, 23-182 limits assumed, chain 3 of 3: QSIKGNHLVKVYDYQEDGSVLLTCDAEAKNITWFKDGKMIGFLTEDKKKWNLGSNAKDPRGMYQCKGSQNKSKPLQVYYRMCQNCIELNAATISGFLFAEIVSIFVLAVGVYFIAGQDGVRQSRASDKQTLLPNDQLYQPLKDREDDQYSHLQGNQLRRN

Legend:
CD3 on human T cells = CD3 on human T cells (human, UniProt P07766 23-207; P04234 22-171; P09693 23-182); test: FACS on human T cells; EC50 printed as n.d., curve still rising at 100 nM
Protocol: (§1) SK-BR-3 cells were digested. T cells were isolated using the human T cell isolation kit (Miltenyi, #130-096-535) as described in the method of the instruction, and resuspended with PBS containing 2% BSA. The cell density was adjusted to 1×10⁶ cells/mL. The cells were seeded in a 96-well V-bottom plate (Corning, #3894) at 100 μL/well, followed by the addition of test antibodies diluted in a 3-fold gradient at a concentration that was 2 times the final concentration, each at 100 μL/well. The cells were incubated at 4° C. for 2 h away from light. Thereafter, the cells in each well were rinsed twice with 100 μL of pre-cooled PBS containing 2% BSA, and centrifuged at 500 g at 4° C. for 5 min, and then the supernatant was discarded. Then each well was added with 100 μL of fluorescent secondary antibody (Alexa Fluor 488-conjugated AffiniPure Goat Anti-Human IgG, Fcγ Fragment Specific, Jackson, #109-545-098, diluted in a 1:500 ratio), and the plate was incubated away from light at 4° C. for 1 h. The cells in each well were washed twice with 100 μL of pre-cooled PBS containing 2% BSA, and centrifuged at 500 g at 4° C. for 5 minutes, and then the supernatant was discarded. Finally, the cells in each well were resuspended with 200 μL of pre-cooled PBS containing 2% BSA, and the fluorescence signal values were read using an ACEA Novocyte3000 flow cytometer.

[1] = molecular target: T1, human B7H4 on the cell surface (human, UniProt Q7Z7D3 25-282); test: FACS on SK-BR-3 cells
T1 construct: whole, on cells; also called CHOK1/hu B7H4; B7H4 on SK-BR-3
T1 sequence (looked up): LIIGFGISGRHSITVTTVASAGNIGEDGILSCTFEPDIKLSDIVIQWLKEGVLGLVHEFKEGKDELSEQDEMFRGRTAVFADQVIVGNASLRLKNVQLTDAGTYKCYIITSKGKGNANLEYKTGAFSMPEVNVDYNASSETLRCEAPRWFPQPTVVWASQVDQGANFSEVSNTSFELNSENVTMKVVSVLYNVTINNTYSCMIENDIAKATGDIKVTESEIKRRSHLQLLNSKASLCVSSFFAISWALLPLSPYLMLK
Protocol: as §1

- Maximum MFI (CD3 on human T cells): 174000
- EC50 [1]: 67.8 nM
- Maximum MFI [1]: 153000
B1: PR002858 (bispecific antibody, human IgG1, kappa, lambda, L234A L235A)
chain 1: EVQLLESGGGLVQPGGSLRLSCAASGFTFSTYAMNWVRQAPGKGLEWVSRIRSKYNNYATYYADSVKDRFTISRDDSKSTLYLQMNSLRAEDTAVYYCVRHGNFGNSYVSWFAYWGQGTLVTVSSASTKGPSVFPLAPSSKSTSGGTAALGCLVKDYFPEPVTVSWNSGALTSGVHTFPAVLQSSGLYSLSSVVTVPSSSLGTQTYICNVNHKPSNTKVDKKVEPKSC
chain 2: QAVVTQEPSLTVSPGGTVTLTCRSSTGAVTTSNYANWVQQKPGQAPRGLIGGTNKRAPWTPARFSGSLLGDKAALTLLGAQPEDEAEYFCALWYSNLWVFGGGTKLTVLGQPKAAPSVTLFPPSSEELQANKATLVCLISDFYPGAVTVAWKADSSPVKAGVETTTPSKQSNNKYAASSYLSLTPEQWKSHRSYSCQVTHEGSTVEKTVAPTECSDKTHTCPPCPAPEAAGGPSVFLFPPKPKDTLMISRTPEVTCVVVDVSHEDPEVKFNWYVDGVEVHNAKTKPREEQYNSTYRVVSVLTVLHQDWLNGKEYKCKVSNKALGAPIEKTISKAKGQPREPQVYTLPPCREEMTKNQVSLWCLVKGFYPSDIAVEWESNGQPENNYKTTPPVLDSDGSFFLYSKLTVDKSRWQQGNVFSCSVMHEALHNHYTQKSLSLSPGK
heavy: not shown
light: not shown

- Maximum MFI (CD3 on human T cells): 145000
- EC50 [1]: 32.2 nM
- Maximum MFI [1]: 154000
B2: PR002852 (bispecific antibody, human IgG1, kappa, L234A L235A)
light: not shown
heavy: not shown
chain: QAVVTQEPSLTVSPGGTVTLTCRSSTGAVTTSNYANWVQQKPGQAPRGLIGGTNKRAPWTPARFSGSLLGDKAALTLLGAQPEDEAEYFCALWYSNLWVFGGGTKLTVLGGGQSGQGGSGGGGSEVQLVESGGGLVQPGGSLKLSCAASGFTFNTYAMNWVRQASGKGLEWVGRIRSKYNNYATYYADSVKDRFTISRDDSKSTLYLQMNSLKTEDTAVYYCVRHGNFGNSYVSWFAYWGQGTLVTVSSASEPKSSDKTHTCPPCPAPEAAGGPSVFLFPPKPKDTLMISRTPEVTCVVVDVSHEDPEVKFNWYVDGVEVHNAKTKPREEQYNSTYRVVSVLTVLHQDWLNGKEYKCKVSNKALGAPIEKTISKAKGQPREPQVYTLPPCREEMTKNQVSLWCLVKGFYPSDIAVEWESNGQPENNYKTTPPVLDSDGSFFLYSKLTVDKSRWQQGNVFSCSVMHEALHNHYTQKSLSLSPGK
